Test results from US20030215458A1 (published 2003).

Amino acid sequences for entries named in this document (tags omitted). Residues count along the entry.
UniProt P01887, 21-119: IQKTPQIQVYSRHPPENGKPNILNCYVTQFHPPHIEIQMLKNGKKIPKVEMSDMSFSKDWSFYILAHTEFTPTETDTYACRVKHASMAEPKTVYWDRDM

Experiments:
[1] = molecular target: T1, mouse B6 class I antigens (D^b or K^b molecules on the surface of RMA-S cells) (mouse, UniProt P01887 21-119); assay: RMA-S cells incubated with peptide (25 ug/ml), stained with FITC anti-D^b or anti-K^b, flow cytometry
[2] = molecular target: T1, mouse B6 class I antigens (D^b or K^b …); assay: binding of 9-mer peptides within p117-139 to mouse B6 (H-2^b) class I; RMA-S cell assay, flow cytometry

RMFPNAPYL [WT1 peptide p126-134 (RMFPNAPYL)]
Binding Affinity to Mouse MHC Class I (% increase of D^b or K^b on RMA-S cells) [1]: 0.9% | Binding Affinity to Mouse MHC Class I (%) [2]: 79%
